In PubChem BioAssay (Tox21):
Where “and” joins values, the source holds several entries; their conditions need not be identical. Equal entries are not always repeated. This is a selection; strong and weak results do not stand in their true shares. Results filed as inconclusive are left out. Calls of active or inactive are those of the source. The call rests on the fitted dose curve; in most records, active means well fitted cell-killing curve with a large enough effect in the repeat runs; inconclusive means weak or mixed curves; inactive means flat fitted curve, though single readings scatter.

Experiment: qHTS RealTime-Glo MT Cell Viability Assay in HepG2 cells - 24 hour (AID 1224867); further: nearly all actives have a fitted effect of over 50% in size
Conditions: RealTime-Glo luminescence; series mostly up to 76.8 µM; activity change, negative = cytotoxicity: at the top concentration
Excerpt: U.S. Tox21 Program National Center for Advancing Translational Sciences [NCATS] NIH Chemical Genomics Center [NCGC] U.S. Environmental Protection Agency [EPA] National Institutes of Environmental Health Sciences [NIEHS] National Toxicology Program [NTP] U.S. Food and Drug Administration [FDA] Tox21 Assay Overview: Measure of cell viability is critical in the cell-base assay. Analysis of cell viability is necessary for the characterization of cell responses to cytotoxic drugs and environmental stress. A RealTime-Glo MT Cell Viability Assay to monitor cell viability in real time of continues cell culture during 40 hours of compound treatment was used to screen Tox21 10K library compounds in HepG2 cells. The RealTime-Glo MT Cell Viability Assay is a nonlytic, homogeneous, bioluminescent method to measure cell viability in real time using a simple, plate-based method. The assay involves adding NanoLuc luciferase and a cell-permeant prosubstrate to cells in culture. Viable cells reduce the proprietary prosubstrate to generate a substrate for NanoLuc luciferase. This substrate diffuses from cells into the surrounding culture medium, where it is rapidly used by the NanoLuc Enzyme to produce a luminescent signal. The signal correlates with the number of viable cells, making the assay well suited for cytotoxicity studies.
Tox21 Assay Protocol Summary: The mixture of HepG2 cell suspension and reagents were dispensed at 600cells/6 ul/well in 1536-well tissue culture treated black solid bottom plates using a Multidrop dispenser. After the assay plates were incubated at a 37 C/5% CO2 incubator for 5 hours, 23 nL of compounds dissolved in DMSO, positive and negative controls was transferred to the assay plate by a pintool work station. The plates were incubated at 37 C for 40 hours. The luminescence intensity were measured at 0h, 8h, 16h, 24h, 32h and 40h time points using ViewLux plate reader during compound treatment.
On the % scale 0 is the no-effect control and ±100 the full control effect; potency means the concentration at half of the fitted maximal effect.

SMILES | activity change, negative = cytotoxicity | Potency
CCC(C)(OOC(C)(C)C)OOC(C)(C)C | inactive: 0.368% [at 15.8 µM] | –
CCCCO[P+](=O)OCCCC | – | inactive
NC(=O)Nc1ccc([As](=O)(O)O)cc1 | – | inactive
O=P(Cl)(Oc1ccccc1)Oc1ccccc1 | inactive: 1.65% | –
O=C1C2CC=CCC2C(=O)N1SC(Cl)(Cl)C(Cl)Cl (configuration not stated) | – | active: 44 µM and active: 4.9 µM
O=[P+](Oc1ccccc1)Oc1ccccc1 | inactive: 0.279% | –
O=C(Cl)OCCOC(=O)Cl | inactive: -6.74% | –
COC(=O)Cl | inactive: -0.0286% | –
CCCCC(CC)CO[P+](=O)OCC(CC)CCCC (configuration not stated) | inactive: 1.94% | –
O=[N+]([O-])c1ccc([N+](=O)[O-])cc1 | inactive: -25.3% | –
O=P(Cl)(Cl)c1ccccc1 | inactive: 0.614% | –
Cc1cc([N+](=O)[O-])c(O)c([N+](=O)[O-])c1 | inactive: -19.9% | –
CCOP(=S)(CC)Sc1ccccc1 (configuration not stated) | inactive: 1.98% | –
O=C(Cl)Oc1ccccc1 | inactive: 0.369% | –
CN(C(=O)Cc1ccc(Cl)c(Cl)c1)[C@H]1CC[C@@]2(CCCO2)C[C@@H]1N1CCCC1 | inactive: -0.476% [at 35.3 µM] | –
O=[p+]1oc2ccccc2c2ccccc21 (configuration not stated) | inactive: 2.58% | –
CN(N=O)C(=N)N[N+](=O)[O-] | inactive: -7.05% | –
CCOC(=O)Cl | inactive: 0.772% | –
CCNC(C)Cc1ccc2c(c1)OCO2 (configuration not stated) | inactive: -4.15% | –
COP(=S)(Cl)OC | inactive: -10.7% | –
CN(C(=O)Cc1ccccc1)[C@H]1CC[C@@]2(CCCO2)C[C@@H]1N1CCCC1 | inactive: 1.29% [at 35.3 µM] | –
CC(C)CCCCCCCOP(OCCCCCCCC(C)C)Oc1ccccc1 | inactive: -5.52% | –
CN(C(=O)Cc1cccc2occc12)[C@H]1CC[C@@]2(CCCO2)C[C@@H]1N1CCCC1 | inactive: 0.556% | –
CCCCOP(OCCCC)OCCCC | inactive: -1.73% | –
ClP(Cl)c1ccccc1 | inactive: 1.44% | –
CC(C)OP(=S)(OC(C)C)SCCNS(=O)(=O)c1ccccc1 | inactive: -18.2% | –
O=[N+]([O-])c1ccc(S(=O)(=O)O)c([N+](=O)[O-])c1 | inactive: 3.21% | –
